This is a selection: effects in other tests are not listed, and their absence says nothing.
Assays:
[1] = Ratio of unbound Cmax in human at 0.615 mg, po dosed as repeated dose to inhibition of human OCT1 expressed in HEK293 cells assessed as reduction in ASP+ substrate uptake by microplate reader based analysis; details: in vivo
[2] = Ratio of unbound Cmax in human at 0.615 mg, po dosed as single dose to inhibition of human OCT1 expressed in HEK293 cells assessed as reduction in ASP+ substrate uptake by microplate reader based analysis; details: in vivo
[3] = target: T1, Solute carrier family 22 member 1 (Homo sapiens, UniProt O15245); experiment: Substrate activity at human OCT1 expressed in HEK293 cells assessed as increase in compound uptake at 0.5 uM incubated for 2 mins by LC-MS/MS analysis relative to control empty vector transfected cells; assay type: cell-based; details: hek293, 2 min
[4] = Unbound maximal portal vein concentration of in human at 0.615 mg, po dosed as repeated dose; details: in vivo
[5] = target: T1, Solute carrier family 22 member 1; experiment: Substrate activity at human OCT1 expressed in HEK293 cells assessed as increase in compound uptake at 0.05 uM incubated for 2 mins by LC-MS/MS analysis relative to control empty vector transfected cells; assay type: cell-based; details: hek293, 2 min
[6] = Ratio of unbound maximal portal vein concentration in human at 0.615 mg, po dosed as single dose to inhibition of human OCT1 expressed in HEK293 cells assessed as reduction in ASP+ substrate uptake by microplate reader based analysis; details: in vivo
[7] = Unbound Cmax in human at 0.615 mg, po dosed as repeated dose; details: in vivo
[8] = Unbound Cmax in human at 0.615 mg, po dosed as single dose; details: in vivo
[9] = target: T1, Solute carrier family 22 member 1; experiment: Substrate activity at human OCT1 expressed in HEK293 cells assessed as increase in compound uptake at 0.1 uM incubated for 2 mins by LC-MS/MS analysis relative to control empty vector transfected cells; assay type: cell-based; details: hek293, 2 min
[10] = Unbound maximal portal vein concentration of in human at 0.615 mg, po dosed as single dose; details: in vivo
[11] = Ratio of unbound maximal portal vein concentration in human at 0.615 mg, po dosed as repeated dose to inhibition of human OCT1 expressed in HEK293 cells assessed as reduction in ASP+ substrate uptake by microplate reader based analysis; details: in vivo
[12] = Unbound Cmax in human at 0.5 mg. TM
[13] = Unbound maximal portal vein concentration of in human at 0.5 mg. TM
[14] = Unbound Cmax in human at 5 mg, TD; details: in vivo, topical_or_ocular
[15] = Cmax in human at 5 mg, TD; details: in vivo, topical_or_ocular
[16] = Cmax in human at 0.5 mg. TM
[17] = Unbound maximal portal vein concentration of in human at 5 mg, TD; details: in vivo

Protein sequences, listed by entry. Tags and fused reporters are not part of them.
UniProt O15245, whole entry: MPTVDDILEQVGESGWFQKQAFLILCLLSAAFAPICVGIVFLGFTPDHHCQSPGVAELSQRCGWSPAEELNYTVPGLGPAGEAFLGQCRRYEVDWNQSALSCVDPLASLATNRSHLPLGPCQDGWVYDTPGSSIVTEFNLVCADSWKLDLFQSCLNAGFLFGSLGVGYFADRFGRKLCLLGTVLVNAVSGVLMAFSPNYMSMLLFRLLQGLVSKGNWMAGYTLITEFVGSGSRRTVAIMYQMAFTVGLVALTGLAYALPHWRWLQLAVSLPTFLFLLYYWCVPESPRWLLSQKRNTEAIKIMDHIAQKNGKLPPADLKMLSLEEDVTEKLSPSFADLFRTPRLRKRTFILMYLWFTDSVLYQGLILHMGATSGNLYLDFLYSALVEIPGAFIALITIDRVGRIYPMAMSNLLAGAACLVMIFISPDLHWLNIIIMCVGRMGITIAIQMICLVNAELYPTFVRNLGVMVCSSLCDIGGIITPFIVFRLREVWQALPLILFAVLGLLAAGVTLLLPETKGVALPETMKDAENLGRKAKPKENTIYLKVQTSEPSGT

| Compound | Ratio [1] | Ratio [2] | fold change (FC) [3] | fCmax [4] | fold change (FC) [5] | Ratio [6] | fCmax [7] | fCmax [8] | fold change (FC) [9] | fCmax [10] | Ratio [11] | fCmax [12] | fCmax [13] | fCmax [14] | Cmax [15] | Cmax [16] | fCmax [17] |
| --- | --- | --- | --- | --- | --- | --- | --- | --- | --- | --- | --- | --- | --- | --- | --- | --- | --- |
| CCC(=O)N(c1ccccc1)C1(COC)CCN(CCc2cccs2)CC1 | 3e-06 | 4e-07 | 1.1 | 0.007 µM | 1.1 | 1e-05 | 5e-05 µM | 1e-05 µM | 1 | 0.0002 µM | 0.0004 | – | – | – | – | – | – |
| CCC(=O)N(c1ccccc1)C1CCN(CCc2ccccc2)CC1 | – | – | – | – | – | – | – | – | – | – | – | 0.0004 µM | 0.01 µM | 0.0007 µM | 4 nM | 2 nM | 0.14 µM |

— ChEMBL document CHEMBL4321821, “Opioids as Substrates and Inhibitors of the Genetically Highly Variable Organic Cation Transporter OCT1” (J Med Chem, 2019)
